From patent US20240034776A1 (FUDAN UNIVERSITY, published 2024)

Molecular target: T1, Flag-tagged full-length human ITPRIPL1 (expressed from pcDNA3.1 in transfected cells) (human, UniProt Q6GPH6 25-555)
T1 construct: cDNA from NCBI NM_001008949.3; also called ITPRIPL1-Flag; HCT116-ITPRIPL1 stably transfected cell lines; not shown: C-terminal Flag tag
T1 sequence: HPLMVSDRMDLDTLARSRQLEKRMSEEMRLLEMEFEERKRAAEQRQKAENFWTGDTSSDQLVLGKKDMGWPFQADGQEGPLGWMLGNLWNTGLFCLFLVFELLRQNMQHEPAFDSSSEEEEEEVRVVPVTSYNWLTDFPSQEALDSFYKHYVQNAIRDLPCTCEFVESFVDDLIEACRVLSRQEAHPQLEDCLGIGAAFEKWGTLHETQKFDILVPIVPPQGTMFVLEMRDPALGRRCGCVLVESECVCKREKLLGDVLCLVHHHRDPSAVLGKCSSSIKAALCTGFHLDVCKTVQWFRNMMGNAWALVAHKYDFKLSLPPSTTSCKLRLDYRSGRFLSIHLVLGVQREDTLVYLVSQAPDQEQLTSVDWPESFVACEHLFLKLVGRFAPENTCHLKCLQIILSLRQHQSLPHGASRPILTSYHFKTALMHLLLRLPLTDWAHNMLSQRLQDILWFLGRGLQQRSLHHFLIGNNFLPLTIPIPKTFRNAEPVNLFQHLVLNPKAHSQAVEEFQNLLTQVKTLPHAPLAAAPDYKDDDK
Test: co-immunoprecipitation (Flag IP) from co-transfected HCT116 cells, Western blot

B1: HA-tagged CD3ε (expressed from pcDNA3.1 in transfected HCT116 cells) (receptor, human, UniProt P07766 23-207, looked up)
chain: DGNEEMGGITQTPYKVSISGTTVILTCPQYPGSEILWQHNDKNIGGDEDDKNIGSDEDHLSLKEFSELEQSGYYVCYPRGSKPEDANFYLYLRARVCENCMEMDVMSVATIVIVDICITGGLLLLVYYWSKNRKAKAKPVTRGAGAGGRQRGQNKERPPPVPNPDYEPIRKGQRDLYSGLNQRRI
notes: whole, on cells; also called CD3ε-HA; CD3E-HA; not shown: HA tag
  binding result: binds
